Values quoted from earlier work in patent publication US20030158213A1, “Xanthine oxidase inhibition as a strategy to alleviate oxidative impairment of vascular function” (priority 2001, published 2003).

Experiments:
nitric oxide synthase [1] = molecular target: T1, nitric oxide synthase (Homo sapiens, UniProt P29474); details: intracoronary infusion; patients without atherosclerosis or its risk factors; cited from earlier work
T1 construct: host or cells: human coronary and forearm vasculature, in vivo infusion of L-NMMA

nitric oxide synthase [2] = molecular target: T1, nitric oxide synthase; details: infusion into the brachial artery; cited from earlier work

## CNC(=N)NCCC[C@H](N)C(=O)O [L-NMMA, N^G-monomethyl-L-arginine]
Nitric oxide synthase [1]
  coronary epicardial tone and coronary blood flow: caused coronary epicardial constriction and reduced coronary blood flow
Nitric oxide synthase [2]
  forearm blood flow: significantly reduced forearm blood flow
